The test system of this series is HaCaT cells. As to the kind of experiment: In vitro cytotoxicity assay, WST-1 cell viability. It is filed as cell-based, Human. As to conditions: 64 μg/mL, 24 h, WST-1, DMEM with 10% heat-inactivated FBS, triplicate. Here is the method:
HaCaT cells were cultured in Dulbecco’s modified Eagle’s medium (DMEM; Hyclone^TM, Logan, UT, USA) with 10% fetal bovine serum (FBS; Hyclone^TM) and 1% penicillin/streptomycin (Pen-Strep; Hyclone^TM) up to 80% confluence at 37 ℃ and 5% CO2. Cells were detached from the plate by adding 0.25% trypsin-EDTA solution (Gibco^TM; Carlsbad, CA, USA). In a 96-well plate, 2 × 10^4 cells were seeded per well and cultured for 24 h. Subsequently, the medium was replaced with 100 μL DMEM (Hyclone^TM) containing 10% heat-inactivated FBS. Peptides were added to each well at concentrations of 64 μg/mL and 160 μg/mL. As references for complete cell lysis, 64 μg/mL melittin (Sigma-Aldrich) and Triton X-100 (Sigma-Aldrich) were used. Untreated cells were used as negative controls. After 24 h incubation at 37 ℃ and 5 % CO2, 10 μL of coloring solution (Cell Proliferation Reagent WST-1^TM; Sigma Aldrich) was added to each well according to the manufacturer’s instructions. The absorbance at 450 nm (treated group and control) and 650 nm (background) was measured in each well using a microplate reader (xMarkTM spectrophotometer; Bio-Rad). The cell viability was calculated using the following equation. All experiments were performed in triplicate. Cell viability (%) = 100 × (OD (treated group) − OD(Background))/(OD (negative control) − OD (Background))(2)
Background: Formazan colour is commonly taken as a measure of viable cells.

On to `CC[C@H](C)[C@H](NC(=O)CN)C(=O)NCC(=O)N[C@@H](C)C(=O)N[C@H](C(=O)N[C@@H](CC(C)C)C(=O)N[C@@H](CCCCN)C(=O)N[C@H](C(=O)N[C@@H](CC(C)C)C(=O)N[C@H](C(=O)N[C@H](C(=O)NCC(=O)N[C@@H](CC(C)C)C(=O)N1CCC[C@H]1C(=O)N[C@@H](C)C(=O)N[C@@H](CC(C)C)C(=O)N[C@H](C(=O)N[C@@H](CO)C(=O)N[C@@H](Cc1c[nH]c2ccccc12)C(=O)N[C@H](C(=O)N[C@@H](CCCCN)C(=O)N[C@@H](CCCNC(=N)N)C(=O)N[C@@H](CCCCN)C(=O)N[C@@H](CCCNC(=N)N)C(=O)N[C@@H](CCC(N)=O)C(=O)N[C@@H](CCC(N)=O)C(N)=O)[C@@H](C)CC)[C@@H](C)CC)[C@@H](C)O)[C@@H](C)O)C(C)C)C(C)C` [Melittin], for which the “Cell Viability ± SD” value stood at 7.2 ± 0.03 %.

The record behind these values is article PMC9330922, “Genomewide Analysis and Biological Characterization of Cathelicidins with Potent Antimicrobial Activity and Low Cytotoxicity from Three Bat Species” (Antibiotics, 2022).
